Source: PubChem BioAssay (Tox21)
“And” between values parts separate entries of the source, which are not always exact repeats. Identical values can stand only once. The entries are a selection whose mix differs from that of the whole data set. Results filed as inconclusive are left out. The source holds several records for some structures; these can differ, active in one and inactive in another. The source made the active and inactive calls. Unless noted, calls follow the shape of the dose curve; as a rule, active = well fitted curve in the direction sought with a large enough effect in the repeat runs; inconclusive = weak or mixed curves; inactive = no such curve, though single readings can be large; an effect the other way counts as inactive or inconclusive.

Chains of the proteins cited; added tags and fusions are not shown.
UniProt P03372, whole entry: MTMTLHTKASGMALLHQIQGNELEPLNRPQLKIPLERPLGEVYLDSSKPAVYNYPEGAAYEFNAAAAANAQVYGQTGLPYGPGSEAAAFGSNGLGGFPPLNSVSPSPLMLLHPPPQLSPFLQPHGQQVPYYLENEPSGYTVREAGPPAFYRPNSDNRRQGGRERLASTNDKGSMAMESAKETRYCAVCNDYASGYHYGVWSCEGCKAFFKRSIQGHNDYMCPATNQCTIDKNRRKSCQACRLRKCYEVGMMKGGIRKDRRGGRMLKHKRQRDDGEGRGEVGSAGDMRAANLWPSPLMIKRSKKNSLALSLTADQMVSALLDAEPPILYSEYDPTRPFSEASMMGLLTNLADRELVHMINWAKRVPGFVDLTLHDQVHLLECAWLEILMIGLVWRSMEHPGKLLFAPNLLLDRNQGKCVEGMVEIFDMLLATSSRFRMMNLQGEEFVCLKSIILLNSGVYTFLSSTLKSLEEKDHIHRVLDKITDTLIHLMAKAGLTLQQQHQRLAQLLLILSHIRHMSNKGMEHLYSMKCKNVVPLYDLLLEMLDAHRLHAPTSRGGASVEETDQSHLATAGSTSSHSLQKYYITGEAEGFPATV
UniProt P11511, whole entry: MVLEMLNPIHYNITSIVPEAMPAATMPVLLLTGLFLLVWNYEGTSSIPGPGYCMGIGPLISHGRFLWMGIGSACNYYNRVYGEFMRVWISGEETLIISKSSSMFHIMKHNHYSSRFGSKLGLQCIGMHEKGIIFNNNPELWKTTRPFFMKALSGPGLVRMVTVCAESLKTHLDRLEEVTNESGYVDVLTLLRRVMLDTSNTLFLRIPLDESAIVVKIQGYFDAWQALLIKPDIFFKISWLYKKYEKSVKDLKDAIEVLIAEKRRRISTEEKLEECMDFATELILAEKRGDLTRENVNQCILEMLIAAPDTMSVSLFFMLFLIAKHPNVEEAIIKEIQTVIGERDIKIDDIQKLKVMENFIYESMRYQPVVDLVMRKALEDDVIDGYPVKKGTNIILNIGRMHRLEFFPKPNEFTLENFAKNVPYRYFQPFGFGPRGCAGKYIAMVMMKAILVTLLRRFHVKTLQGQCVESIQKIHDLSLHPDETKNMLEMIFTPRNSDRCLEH
UniProt P35869, whole entry: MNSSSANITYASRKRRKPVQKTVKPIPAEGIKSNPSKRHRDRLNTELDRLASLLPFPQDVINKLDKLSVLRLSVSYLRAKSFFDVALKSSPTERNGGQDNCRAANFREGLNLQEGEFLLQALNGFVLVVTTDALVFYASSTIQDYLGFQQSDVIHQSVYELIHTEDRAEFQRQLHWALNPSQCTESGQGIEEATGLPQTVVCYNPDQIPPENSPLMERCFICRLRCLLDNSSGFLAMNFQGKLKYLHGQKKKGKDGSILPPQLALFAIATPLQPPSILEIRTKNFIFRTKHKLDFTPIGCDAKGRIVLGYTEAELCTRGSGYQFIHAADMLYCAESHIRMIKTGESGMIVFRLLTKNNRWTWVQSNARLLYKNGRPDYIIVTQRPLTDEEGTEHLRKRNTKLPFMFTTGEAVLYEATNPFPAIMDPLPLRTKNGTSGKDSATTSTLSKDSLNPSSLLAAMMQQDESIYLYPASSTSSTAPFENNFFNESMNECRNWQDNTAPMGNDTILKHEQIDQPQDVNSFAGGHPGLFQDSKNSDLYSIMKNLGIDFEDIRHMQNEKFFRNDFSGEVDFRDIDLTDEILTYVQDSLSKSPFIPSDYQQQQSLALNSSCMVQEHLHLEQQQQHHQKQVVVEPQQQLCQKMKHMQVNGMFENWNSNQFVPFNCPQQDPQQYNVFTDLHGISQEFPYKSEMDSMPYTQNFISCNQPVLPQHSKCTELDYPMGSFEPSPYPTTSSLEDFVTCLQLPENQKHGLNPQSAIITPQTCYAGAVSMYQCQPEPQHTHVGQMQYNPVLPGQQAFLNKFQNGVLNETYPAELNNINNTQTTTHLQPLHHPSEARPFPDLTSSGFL

Key:
[1] = test system: thyroid hormone receptor (rat, GH3 cells); test: qHTS assay to identify small molecule agonists of the thyroid receptor (TR) signaling pathway (AID 743066; calls by dose curve); conditions: GH3.TRE-Luc cells, TR agonist luciferase, 24 h; at 83.9 µM (top of the series)
[2] = qHTS assay to identify small molecule antagonists of the estrogen receptor alpha (ER-alpha) signaling pathway - cell viability counter screen (AID 743074; calls by dose curve; also: nearly all actives have a fitted effect of over 45% in size); conditions: ERalpha-bla HEK293 viability, CellTiter-Glo luminescence, 18 h; at 69.4 µM (top of the series)
[3] = molecular target: Estrogen receptor (Homo sapiens) (UniProt P03372); test: qHTS assay to identify small molecule agonists of the estrogen receptor alpha (ER-alpha) signaling pathway (AID 743075; calls by dose curve); conditions: HEK293 ER-alpha-UAS-bla, beta-lactamase FRET ratio, 18 h; at 70.1 µM (top of the series)
[4] = qHTS assay to identify small molecule antagonists of the estrogen receptor alpha (ER-alpha) signaling pathway using the BG1 cell line - cell viability counter screen (AID 743081);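 also: compound given together with 17beta-estradiol as the ER stimulus; nearly all actives have a fitted effect of over 45% in size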; also: potency is read from the fitted curve at half-maximal effect
[5] = molecular target: Aromatase (Homo sapiens) (UniProt P11511); test: qHTS assay to identify aromatase inhibitors (AID 743083); conditions: MCF-7 aro ERE, testosterone-driven ERE luciferase, 24 h; at 70.3 µM (top of the series); also: nearly all actives have a fitted effect of over 55% in size
[6] = qHTS assay to identify aromatase inhibitors - cell viability counter screen (AID 743084); conditions: MCF-7 aro ERE viability, CellTiter-Fluor, 24 h; at 70.3 µM (top of the series);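 also: cells stimulated with testosterone during compound exposure; nearly all actives have a fitted effect of over 55% in size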
[7] = qHTS assay to identify small molecule antagonists of the estrogen receptor alpha (ER-alpha) signaling pathway using the BG1 cell line (AID 743080; calls by dose curve;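 also: BG1 cells stimulated with 17beta-estradiol alongside compound; nearly all actives have a fitted effect of over 25% in size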); conditions: BG1Luc4E2 ERE-luciferase antagonist mode, luminescence; at 70.3 µM (top of the series)
Outline: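 Endogenous full-length ER-alpha in BG1-Luc-4E2 cells drives a stably integrated 4×ERE luciferase gene; compounds were tested against 17beta-estradiol over 21.5 h, with luminescence and multiplexed viability fluorescence recorded.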

[8] = molecular target: Aryl hydrocarbon receptor (Homo sapiens) (UniProt P35869); test: qHTS assay to identify small molecule that activate the aryl hydrocarbon receptor (AhR) signaling pathway (AID 743085); conditions: HepG2 AhR-luc (HG2L7.5c1), luciferase, 24 h; at 70.3 µM (top of the series);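 also: HG2L7.5c1 human HepG2 liver cells with stably integrated DRE-driven firefly reporter; nearly all actives have a fitted effect of over 15% in size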
[9] = molecular target: Estrogen receptor (Homo sapiens) (UniProt P03372); test: qHTS assay to identify small molecule antagonists of the estrogen receptor alpha (ER-alpha) signaling pathway (AID 743069; active = well fitted curve in the direction sought with a large enough effect in the signal ratio in the repeat runs, not every such curve was filed as active; the % refers to the signal ratio); conditions: HEK293 ER-alpha-UAS-bla, beta-lactamase ratio, antagonist mode; at 69.4 µM (top of the series)
Outline: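 In this cell-based reporter format, GripTite HEK293 cells harbouring ER-alpha-UAS-bla were grown overnight with 2% charcoal-stripped FBS, dosed with DMSO-dissolved compounds, then challenged with 17beta-estradiol. After 18 hr at 37C, beta-lactamase activity was detected by FRET fluorescence.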

[10] = molecular target: Estrogen receptor (Homo sapiens) (UniProt P03372); test: qHTS assay to identify small molecule agonists of the estrogen receptor alpha (ER-alpha) signaling pathway using the BG1 cell line (AID 743079); conditions: BG1Luc4E2 cells, ERE-luciferase agonist, 22 h; at 70.3 µM (top of the series); also: nearly all actives have a fitted effect of over 20% in size
% is scaled to controls: 0 for no effect and ±100 for the full control effect.

CCC(=O)N(c1ccccc1)C1(COC)CCN(CCc2cccs2)CC1
inactive: activation [1] -7.01% | activity, negative = cytotoxicity [2] -29.5% | activation [3] -1.69% | Potency [4] | activity, negative = inhibition [5] -1.9% | activity change, negative = cytotoxicity [6] -5.95%

O=[N+]([O-])C(Cl)(Cl)Cl
inactive: activation [1] 0.474% | activity change, negative = inhibition [7] -14.8% | Potency [4] | activity, negative = inhibition [5] 13% | activity change, negative = cytotoxicity [6] 2.72% | activation [8] -0.289%

CCC(=O)N(c1ccccc1)C1(COC)CCN(CCn2nnn(CC)c2=O)CC1
inactive: activation [1] -1.31% | activity, negative = cytotoxicity [2] -16% | activity change, negative = inhibition [7] -5.63% | Potency [4] | activity, negative = inhibition [5] 6.68% | activation [8] 0.214%

CN(CCCl)CCCl
inactive: activation [1] -7.5% | activation [8] 0.396% and -2.95%
inactive and 61 µM (active): Potency [4]

CCC(=O)N(c1ccccc1)C1CCN(CCc2ccccc2)CC1
inactive: activity, negative = inhibition [9] 3.18% | activity, negative = cytotoxicity [2] -8.95% | activation [3] -1.8% | activation [10] 16.4% | activity change, negative = inhibition [7] 1.11% | Potency [4] | activity, negative = inhibition [5] 8.74% | activity change, negative = cytotoxicity [6] -0.0263% | activation [8] 4.01%
